# Rows were chosen to be rich in hits. Some 1.9% of all compounds tested hit in one or more screens of this group.
# ARNT-TACC3 inh = disruptors of ARNT/TACC3 protein interaction, primary screen, biochemical, AlphaScreen, single concentration; AlphaScreen His-ARNT PAS-B/GST-TACC3 binding, luminescence; TACC3 fragment carries E629A point mutation; inhibition, % at 9.99 µM; 390,000 tested, 0.66% active; AID 623870, 2012;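 active = mean inhibition of replicates at least 50% and at least half of replicates each reaching 50%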;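 note: 0% = complete ARNT plus TACC3 wells and 100% = ARNT alone without TACC3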
# PDI inh = inhibitors of human PDI, primary screen, biochemical, turbidity, single point, plate reader; Protein disulfide-isomerase (Homo sapiens), P07237; AID 588391, 2011; PDI insulin aggregation turbidity, A650, 90 min; inhibition, % at 10 µM; 350,000 tested, 0.052% active;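 active = mean inhibition across replicates of 30% or more, whatever share of single replicates reach that level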
# ERp5 block = inhibitors of ERp5-driven insulin aggregation, primary screen, biochemical, turbidity, absorbance 650 nm, single point; Protein disulfide-isomerase A6 (Homo sapiens), Q15084; 90 min; inhibition, % at 9.99 µM; 350,000 tested, 0.05% active; AID 651711, 2012;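 active = mean replicate inhibition above about 25%, with every replicate also reaching it, limit read from the data, passing the limit was not always enough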
# PglD DTNB = C. jejuni PglD acetyltransferase inhibitors, primary screen, biochemical, DTNB colorimetric, single point. UDP-N-acetylbacillosamine N-acetyltransferase PglD (Campylobacter jejuni). purified PglD enzyme, DTNB colorimetric CoA detection. inhibition, % at 12.5 µM. 360,000 tested, 0.098% active; in the data active = inhibition above about 16%, passing the limit was not always enough
# FGF22 binding = binders of human FGF22 protein, primary screen, FGF22 synaptogenesis inhibitor project, biophysical, thermal shift, single point; Fibroblast growth factor 22 (Homo sapiens), Q9HCT0; recombinant FGF22 thermal shift, SYPRO orange fluorescence; percent of sucrose octasulfate shift, DMSO zero; activity (Tm shift, normalised), % at 9.99 µM; 340,000 tested, 1.5% active; AID 651658, 2012;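 active = mean Tm shift, scaled 0 neutral to 100 positive control, at about 1.3% or above, every replicate too, limit read from the data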
# Yeast UUG start = modulators of start codon recognition fidelity in yeast | S. cerevisiae UUG-firefly luciferase reporter, luminescence/redox ratio | activity score, % at 18.7 µM | 350,000 tested, 0.13% active;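 active = replicate mean at a twofold rise or more, about +100% in these data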;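 also: firefly luciferase made from a UUG start codon reports start codon fidelity; reporter light over untreated wells divided by growth signal over untreated wells; some hits fall short of that in this replicate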
# The depositor's hits bear a star; . = not tested or not shown.
# The line under a structure holds: ARNT-TACC3 inh	PDI inh	ERp5 block	PglD DTNB	FGF22 binding	Yeast UUG start
COc1ccccc1CNC(=O)C[C@@H]1C[C@@H]2c3cc(NC(=O)Cc4ccncc4)ccc3O[C@@H]2[C@H](CO)O1
    41*	.	2	-2	0	.
COC(=O)C[C@H]1C[C@@H]2c3cc(NC(=O)Cc4ccncc4)ccc3O[C@@H]2[C@@H](CO)O1
    6	.	60*	0	0	-17
COc1ccccc1CNC(=O)C[C@H]1C[C@H]2c3cc(NC(=O)Cc4ccncc4)ccc3O[C@H]2[C@@H](CO)O1
    5	.	-5	-1	0	.
C/C=C/c1ccc([C@H]2[C@@H](CO)N(CC3CC3)C23CN(C(=O)COC)C3)cc1
    .	.	-6	.	.	.
CO[C@@H]1CN(C)C(=O)c2cc(NC(=O)Nc3ccccc3)ccc2OC[C@H](C)N(C(=O)Nc2c(C)noc2C)C[C@@H]1C
    33	.	1	1	0	29
Cc1cccc(-n2nc(CC#N)c(C#N)c2N)c1
    2	3	0	.	44*	.
CO[C@H]1CN(C)C(=O)c2cc(NC(=O)c3ccccc3)ccc2OC[C@H](C)N(C(=O)CN(C)C)C[C@@H]1C
    9	.	0	0	0	5
CCN1CCN(C(=O)CSc2nc(N)cc(N)n2)CC1
    -13	4	-5	.	44*	.
CC1CCCC(C)N1C(=O)CSc1nc(N)cc(N)n1 (stereo not given)
    3	-9	-1	.	0	.
COc1ccccc1NC(=O)N[C@H]1CC[C@H](CCn2cc(C3(O)CCCC3)nn2)O[C@@H]1CO
    -3	.	-2	-3	0	.
O=C(CN1c2ccccc2Sc2ccccc21)NNC(=S)Nc1ccc(Cl)cc1
    0	-4	4	6	0	-18
O=C(CN1CCOCC1)NNC(=S)Nc1ccc(Cl)cc1
    39*	-13	-1	1	0	-22
COc1ccc(/C=C/C(=O)c2cc3c(cc2N)OCO3)cc1
    19	4	7	.	43*	.
CCN1CCn2c3c(c4cc(Cl)ccc42)CCCC31 (stereo not given)
    2	0	.	-7	.	0
CCN(CC)CCN1CCn2c3c(c4cc(C)ccc42)CCCC31 (stereo not given)
    .	6	1	.	43*	.
C[C@@H]1CN([C@H](C)CO)C(=O)c2cc(NC(=O)Nc3ccc4c(c3)OCO4)ccc2O[C@@H](C)CCCCO[C@@H]1CN(C)Cc1ccc(C(=O)O)cc1
    2	.	0	0	-1	12
C[C@H](NC(=O)c1ccco1)C(=O)Nc1nc(-c2ccccn2)cs1
    68*	7	-1	.	0	.
CCC(=O)NCCCNc1nc2c(C)cccc2cc1C#N
    0	-10	5	.	43*	.
CCN1C(=O)C(CC(=O)Nc2ccccc2)N(Cc2ccccn2)C1=S (stereo not given)
    1	6	-7	.	0	.
C=CCN1C(=O)C(CC(=O)Nc2ccccc2)N(Cc2ccccn2)C1=S (stereo not given)
    6	-2	2	-1	44*	-10
CN(C)CC#Cc1ccc([C@@H]2[C@@H](CO)N3CCCCN(CC4CC4)C[C@@H]23)cc1
    6	.	-1	-3	0	7
CCCc1cc(=O)oc2cc(C)cc(OCC(=O)N[C@@H](CSCc3ccccc3)C(=O)O)c12
    -11	.	6	6	7.2*	-6
O=C(C[C@H]1C[C@@H]2c3cc(NC(=O)Nc4ccccc4F)ccc3O[C@@H]2[C@H](CO)O1)NCCc1ccccc1
    -5	.	14	-2	0	-4
Cc1ccc(NC(=O)COC(=O)C2=COCCO2)cc1
    -4	8	.	-3	.	-14
COc1ccc(NC(=O)COC(=O)C2=COCCO2)cc1OC
    -5	-4	1	.	44*	.
C/C=C/C(=O)OCC(=O)Nc1ccc(OC)c(OC)c1
    -1	1	1	.	43*	.
O=C(COc1cccc2cccnc12)N1CCc2ccccc21
    .	-3	2	.	43*	.
O=[N+]([O-])c1ccc2nc(-c3ccncc3)[nH]c2c1
    1	-12	3	.	0	.
Cc1ccc(-c2nc3ccc([N+](=O)[O-])cc3[nH]2)cc1
    7	1	-40	.	1.5*	.
Cc1cc(NC(=S)NC(=O)c2ccco2)c2ccccc2n1
    -8	6	-6	.	43*	.

# The final 2 compounds of the part before are carried over, then new ones follow:
# The line under a structure holds: ARNT-TACC3 inh	PDI inh	ERp5 block	PglD DTNB	FGF22 binding	Yeast UUG start
Cc1ccc(-c2nc3ccc([N+](=O)[O-])cc3[nH]2)cc1
    7	1	-40	.	1.5*	.
Cc1cc(NC(=S)NC(=O)c2ccco2)c2ccccc2n1
    -8	6	-6	.	43*	.
O=C(O)C1C=CC(C(=O)O)c2ccccc21 (stereo not given)
    .	-3	-2	.	44*	.
CCC(=O)NC[C@H]1[C@H](c2ccccc2)[C@@H](CO)N1C(=O)C1CC1
    5	.	1	-4	0	13
COc1ccc(CCN2C(=O)CS/C2=N\NC(=O)c2cccs2)cc1OC
    5	7	-8	.	44*	.
COc1cccc(C(=O)N/N=C2/SCC(=O)N2CCc2ccc(OC)c(OC)c2)c1
    -24	8	.	1	.	-14
CN=C(NC(=O)Nc1c(C)cccc1C)NC(=O)Nc1c(C)cccc1C
    .	-8	4	8	44*	-20
O=C(N/N=C(\c1ccccc1)c1cccnc1)c1cccc(F)c1
    57*	-9	7	3	0	-22
O=C(N/N=C(\c1ccccc1)c1cccnc1)c1ccc(O)cc1
    -2	9	3	-5	0	-15
O=c1c2ccccc2nc(SCc2ccccc2F)n1C1CCCC1
    47*	-4	3	0	0	-5
COc1c(C)cc(C(=O)C2CCCN(Cc3ccc(Oc4ncccn4)cc3)C2)cc1C (stereo not given)
    1	15	2	1	0	-5
CC(C)Oc1cccc(C(=O)C2CCCN(Cc3ccc(Oc4ncccn4)cc3)C2)c1 (stereo not given)
    1	-1	3	.	43*	.
C[C@@H]1CN([C@H](C)CO)C(=O)Cc2cc(NC(=O)Cn3cnnn3)ccc2O[C@@H]1CN(C)CC1CCCCC1
    21	.	0	6	-1	1
CN1C(=O)CN(CCN2CC(=O)N(C)C(=O)C2)CC1=O
    .	-11	3	-7	43*	-7
CC(C)COC(=O)OCN1C(=O)CN(CCN2CC(=O)N(COC(=O)OCC(C)C)C(=O)C2)CC1=O
    12	7	-5	-4	0	-21
CCS(=O)(=O)N1CC2(C1)[C@@H](c1ccccc1)[C@@H](CO)N2C(=O)C1CC1
    .	.	6	.	0	.
OCCN(CC(O)COc1ccccc1)CC(O)Cn1ccc2ccccc21 (stereo not given)
    2	-3	4	-5	0	2

# Just ERp5 block and FGF22 binding, for some of the entries so far:
SMILES | ERp5 block | FGF22 binding
C[C@@H]1CN([C@H](C)CO)C(=O)Cc2cc(NC(=O)Cn3cnnn3)ccc2O[C@@H]1CN(C)CC1CCCCC1 | 0 | -1
CC(C)COC(=O)OCN1C(=O)CN(CCN2CC(=O)N(COC(=O)OCC(C)C)C(=O)C2)CC1=O | -5 | 0
OCCN(CC(O)COc1ccccc1)CC(O)Cn1ccc2ccccc21 (stereo not given) | 4 | 0
CN1C(=O)CN(CCN2CC(=O)N(C)C(=O)C2)CC1=O | 3 | 43*
CCS(=O)(=O)N1CC2(C1)[C@@H](c1ccccc1)[C@@H](CO)N2C(=O)C1CC1 | 6 | 0

# Screens as filed in PubChem.
